# Measured affinities in a library of Ab-14 light chain variants

Reference: Engelhart et al. 2022, doi:10.1038/s41597-022-01779-4. File: FLAb, binding data.

All variants were tested on one target, the spike HR2 peptide PDVDLGDISGINAS (SARS-CoV-2).

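Library AAYL50 holds single substitutions and randomly drawn double and triple substitutions in the CDRs. Affinity was read by AlphaSeq, a pooled yeast mating assay with surface-displayed partners. The frequency of each diploid, read from paired DNA barcodes, reflects how well the two displayed proteins bind. The ratio of observed to expected reads was calibrated, replicate by replicate, on BCL2-family standards whose Kd was known from biolayer interferometry. Each pool was mated in three replicate cultures.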

Parent scFv Ab-14: VH joined to VL by three GGGGS repeats. Changes lie in the light chain CDRs alone.
VH: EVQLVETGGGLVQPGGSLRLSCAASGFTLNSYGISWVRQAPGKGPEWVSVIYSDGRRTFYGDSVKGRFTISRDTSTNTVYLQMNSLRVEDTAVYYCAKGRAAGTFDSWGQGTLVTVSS
VL: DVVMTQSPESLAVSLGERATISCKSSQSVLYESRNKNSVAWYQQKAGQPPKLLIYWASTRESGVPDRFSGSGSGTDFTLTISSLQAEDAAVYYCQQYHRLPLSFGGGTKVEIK

Positions count from residue 1 of the parent VL; K36P puts P in place of K.
The read-out is the apparent dissociation constant on a log10 scale (nM): the lower, the stronger.
Where no diploid with the target was found in that replicate, the entry reads "nd": below detection, most likely a poor binder, though not proof of it.

Variant K36P/S58C/Q96M gave 1.63, 1.82, 1.87 (controls 1 of 9).
Variant Q27W/K36Y/A57V gave 2.83, 2.27, 3.18 (controls 0 of 9).
Variant N37T/S58T/Y97T gave 4.20, nd, nd (controls 0 of 9).
Variant V39R/T59P/E61H gave nd, 5.36, nd (controls 1 of 9).
Variant S38R/H98S gave 1.12, 2.16, nd (controls 0 of 9).
Variant L30F/V39H/Q95Y gave 4.07, nd, 5.43 (controls 1 of 9).
Variant A57T/T59P/L102S gave nd, nd, nd (controls 2 of 9).
Variant L30C/S58G/T59E gave 0.94, 1.08, 1.06 (controls 0 of 9).
Variant R34Q/K36V/R60Y gave nd, nd, nd (controls 0 of 9).
Variant S26K/N35T/E61H gave 2.64, 2.90, 3.01 (controls 0 of 9).
Variant K36W/V39W/Q96V gave 5.43, 5.79, nd (controls 3 of 9).
Variant S33T/S62N/Q95V gave 1.06, 0.85, 0.77 (controls 1 of 9).
Variant S26H/L30N/N35C gave 4.83, 3.04, 5.04 (controls 2 of 9).
Variant R34V/W56K/Q95C gave 2.67, 2.20, 3.25 (controls 0 of 9).
Variant S38V/W56M/P101G gave nd, nd, nd (controls 0 of 9).
Variant E61D/Y97F/L100P gave nd, nd, nd (controls 0 of 9).
Variant S26Q/S62M gave 0.89, 1.04, 0.92 (controls 1 of 9).
Variant E61M/Q96K/H98T gave nd, 2.29, nd (controls 1 of 9).
Variant K24V/Q27K/H98V gave nd, 2.53, nd (controls 0 of 9).
Variant P101T gave 0.35, 0.64, 0.52 (controls 1 of 9).
Variant V29N/V39R/R60Q gave nd, nd, nd (controls 0 of 9).
Variant R34Y/N37T/L100H gave nd, nd, nd (controls 0 of 9).
Variant V29D/H98R/R99I gave 0.37, 0.62, 0.61 (controls 0 of 9).
Variant A40L gave nd, 3.03, 3.59 (controls 0 of 9).
Variant W56L/P101Y/L102E gave nd, nd, nd (controls 1 of 9).
Variant S25K/R34K gave 2.42, 2.27, 2.60 (controls 4 of 9).
Variant V29P/Y97C gave nd, nd, nd (controls 2 of 9).
Variant L30V/H98Y/L100I gave 1.92, 1.78, 1.92 (controls 1 of 9).
Variant S28Q/L100M/S103M gave 4.07, nd, nd (controls 1 of 9).
Variant Q27E/Y97L gave 2.93, 3.54, 3.29 (controls 4 of 9).
Variant R34F/N37P/Q96M gave 2.61, 2.36, 3.30 (controls 1 of 9).
Variant E32H/R60F gave nd, nd, nd (controls 0 of 9).
Variant E32H/R34Q/K36C gave 2.87, 4.51, 2.16 (controls 0 of 9).
Variant Q27G/S62F/L102K gave nd, nd, 4.98 (controls 0 of 9).
Variant K24D/S25F/V29K gave 0.18, 0.54, 0.50 (controls 1 of 9).
Variant S33C/W56A gave nd, nd, nd (controls 3 of 9).
Variant E32F/A40S/P101R gave 3.19, 1.92, 2.54 (controls 1 of 9).
Variant S25G/K36E/Q96P gave 0.84, 1.07, 1.04 (controls 0 of 9).

A selection of 5 entries from above:

| changes | log10 Kd, replicates | signal with controls |
|---|---|---|
| S26Q/S62M | 0.89, 1.04, 0.92 | 1 of 9 |
| E32H/R60F | nd, nd, nd | 0 of 9 |
| S25G/K36E/Q96P | 0.84, 1.07, 1.04 | 0 of 9 |
| V29N/V39R/R60Q | nd, nd, nd | 0 of 9 |
| K24V/Q27K/H98V | nd, 2.53, nd | 0 of 9 |

Nonspecific signal, from three strains lacking the peptide, appeared in 18% of pairings of library AAYL50, centred on 4.19 (5% of these signals below 2.99); values are not corrected for it. For each scFv, signals with the empty controls are counted beside the result.
Parent in this assay: reference entry 0.65, copy in this library 1.68.